# From patent US6534546B1 (Chugai Seiyaku Kabushiki Kaisha, priority 1994, dated 2003)
# Molecular target: iNOS (Type 2) (Rattus norvegicus, UniProt Q06518)
# Test: not given
# Details: index of selectivity
row,SMILES,Ratio of IC50 values E-cNOS/iNOS
1,N=C(NN)NCCC[C@H](N)C(=O)O,0.1

# Molecular target: N-cNOS (Type 1) (Rattus norvegicus, UniProt P29476)
# Test: NOS activity, conversion of L-[3H]arginine to L-[3H]citrulline, crude N-cNOS enzyme from rat cerebral cortex
# Details: index of selectivity
SMILES,Ratio of IC50 values E-cNOS/N-cNOS,Ratio of IC50 values iNOS/N-cNOS
N=C(NN)NCCC[C@H](N)C(=O)O,1.1,8.4
"CSC(=N)Nc1cccc(C2(N)CCCCC2)c1.Cl.Cl [Example 142, N-(1-(3-(S-methylisothioureido)phenyl)cyclohexyl)amine dihydrochloride]",15.1,–
"CCSC(=N)Nc1cccc(C2(N)CCCCC2)c1.Cl.Cl [Example 144, N-(1-(3-(S-ethylisothioureido)phenyl)cyclohexyl)amine dihydrochloride]",24.0,–
"Cl.NC(=N[N+](=O)[O-])Nc1cccc(C2(N)CCCCC2)c1 [Example 169, N-(1-(3-(N′-nitroguanidino)phenyl)cyclohexyl)amine hydrochloride]",3.0,–
"CCSC(=N)Nc1ccc(CC(C)(C)N)cc1.Cl.Cl [Example 193, N-(1,1-dimethyl-2-(4-(S-ethylisothioureido)phenyl)ethyl)amine dihydrochloride]",12.1,–
"CCN=C(N)Nc1cccc(C2(N)CCCCC2)c1.Cl.Cl [Example 234, N-(1-(3-(N′-ethylguanidino)phenyl)cyclohexyl)amine dihydrochloride]",13.1,–
"CCN=C(N)Nc1ccc(CCN)c(F)c1.Cl.Cl [Example 258, N-(2-(4-(N′-ethylguanidino)-2-fluorophenyl)ethyl)amine dihydrochloride]",14.9,–
"CCSC(=N)Nc1ccc(CCN)c(OC)c1.Cl.Cl [Example 482, N-(2-(4-(S-ethylisothioureido)-2-methoxyphenyl)ethyl)amine dihydrochloride]",50.2,–
